Source: US6897217B2, “2-Alkynyl-and 2-alkenyl-pyrazolo-[4,3-e]-1,2,4-triazolo-[1,5-c]-pyrimidine adenosine A2a receptor antagonists” (Schering Corporation, priority 2003, dated 2005)

Target: Human A2a Adenosine Receptor (Homo sapiens, UniProt P29274)
Assay: Human adenosine A2a receptor competition binding assay
Conditions: read-out: A2a Ki; [3H]-SCH 58261 displacement, human A2a membranes
Method: Human Adenosine A2a and A1 Receptor Competition Binding Assay Protocol
• A2a: Human A2a Adenosine Receptor membranes, Catalog #RB-HA2a, Receptor Biology, Inc., Beltsville, Md. Dilute to 17 μg/100 μl in membrane dilution buffer (see below). Assay Buffers • Membrane dilution buffer: Dulbecco's Phosphate Buffered Saline (Gibco/BRL)+10 mM MgCl2. • Compound Dilution Buffer: Dulbecco's Phosphate Buffered Saline (Gibco/BRL)+10 mM MgCl2 supplemented with 1.6 mg/ml methyl cellulose and 16% DMSO. Prepared fresh daily. Ligands • A2a: [3H]-SCH 58261, custom synthesis, AmershamPharmacia Biotech, Piscataway, N.J. Stock is prepared at 1 nM in membrane dilution buffer. Final assay concentration is 0.5 nM. • A1: [3H]-DPCPX, AmershamPharmacia Biotech, Piscataway, N.J. Stock is prepared at 2 nM in membrane dilution buffer. Final assay concentration is 1 nM. Non-specific Binding • A2a: To determine non-specific binding, add 100 nM CGS 15923 (RBI, Natick, Mass.). Working stock is prepared at 400 nM in compound dilution buffer. • A1: To determine non-specific binding, add 100 μM NECA (RBI, Natick, Mass.). Working stock is prepared at 400 μM in compound dilution buffer. Compound Dilution • Prepare 1 mM stock solutions of compounds in 100% DMSO. Dilute in compound dilution buffer. Test at 10 concentrations ranging from […] to 30 μM. Prepare working solutions at 4× final concentration in compound dilution buffer. […]

SMILES | Ki [nM]
CC#Cc1nc2c3cnn(CCN4CCN(c5cc6oc(C)nc6cc5F)CC4)c3nc(N)n2n1 | 0.6
CC#Cc1nc2c3cnn(CCN4CCN(c5cc6nc(C)oc6cc5F)CC4)c3nc(N)n2n1 | 0.5
